Two molecules from article PMC4537157 (PLoS ONE, 2015) can be followed below.

Each structure is given as a SMILES string. pEC50: −log10 of the molar value.

Holding throughout (type): cell-based
One experiment concerns human newborn cord blood. The experiment can be described thus: Whole blood cytokine assay (TNF, IL-1β ELISA), newborn cord blood. Particulars: for IL-1β production / TNF-α production: Newborn blood, 6 h. The procedure:
(§1) Assessment of TLRA activity in whole blood was completed as previously described. […] Vehicle (DMSO) was added separately as a control. Suspensions containing 200 μl/well were gently mixed by pipetting and incubating for 6 h at 37°C in a humidified incubator at 5% CO2. After culture, plates were centrifuged at 500 x g and 100–150 μl of supernatant was carefully removed by pipetting without disturbing the cell pellet. Supernatants derived from human leukocyte stimulations were assayed by enzyme-linked immunoabsorbent assay (ELISA) for TNF (BD Biosciences, San Jose, CA, USA) and IL-1β (eBiosciences, San Diego, CA). Experiments were performed in triplicates.
(§2) Compound concentrations are shown in μM. Data are shown as mean ± SEM of n = 6–8.
(§3) Compound concentrations are shown in μM/ml. Cytokine production is shown as pg/ml. (PDF) Click here for additional data file.
In general terms: In an ELISA, binding on a coated surface is turned into a signal by an enzyme label.

Experiment [1] relates to human adult peripheral blood. The experiment can be described thus: Whole blood cytokine assay (TNF, IL-1β ELISA), adult peripheral blood. Particulars: for IL-1β production / TNF-α production: Adult blood, 6 h. The procedure:
as §1, §2, §3

Experiment [2] relates to human newborn and adult leukocytes. Kind of experiment: Whole blood and MoDC assays, overall potency as summarised in the discussion. Particulars: Leukocyte. As for the experimental part:
as §1

The target in another experiment is T1, human TLR7 (Homo sapiens, UniProt Q9NYK1).
T1 construct: host or cells: HEK293 (HEK-Blue)
T1 sequence (Q9NYK1 27-1049): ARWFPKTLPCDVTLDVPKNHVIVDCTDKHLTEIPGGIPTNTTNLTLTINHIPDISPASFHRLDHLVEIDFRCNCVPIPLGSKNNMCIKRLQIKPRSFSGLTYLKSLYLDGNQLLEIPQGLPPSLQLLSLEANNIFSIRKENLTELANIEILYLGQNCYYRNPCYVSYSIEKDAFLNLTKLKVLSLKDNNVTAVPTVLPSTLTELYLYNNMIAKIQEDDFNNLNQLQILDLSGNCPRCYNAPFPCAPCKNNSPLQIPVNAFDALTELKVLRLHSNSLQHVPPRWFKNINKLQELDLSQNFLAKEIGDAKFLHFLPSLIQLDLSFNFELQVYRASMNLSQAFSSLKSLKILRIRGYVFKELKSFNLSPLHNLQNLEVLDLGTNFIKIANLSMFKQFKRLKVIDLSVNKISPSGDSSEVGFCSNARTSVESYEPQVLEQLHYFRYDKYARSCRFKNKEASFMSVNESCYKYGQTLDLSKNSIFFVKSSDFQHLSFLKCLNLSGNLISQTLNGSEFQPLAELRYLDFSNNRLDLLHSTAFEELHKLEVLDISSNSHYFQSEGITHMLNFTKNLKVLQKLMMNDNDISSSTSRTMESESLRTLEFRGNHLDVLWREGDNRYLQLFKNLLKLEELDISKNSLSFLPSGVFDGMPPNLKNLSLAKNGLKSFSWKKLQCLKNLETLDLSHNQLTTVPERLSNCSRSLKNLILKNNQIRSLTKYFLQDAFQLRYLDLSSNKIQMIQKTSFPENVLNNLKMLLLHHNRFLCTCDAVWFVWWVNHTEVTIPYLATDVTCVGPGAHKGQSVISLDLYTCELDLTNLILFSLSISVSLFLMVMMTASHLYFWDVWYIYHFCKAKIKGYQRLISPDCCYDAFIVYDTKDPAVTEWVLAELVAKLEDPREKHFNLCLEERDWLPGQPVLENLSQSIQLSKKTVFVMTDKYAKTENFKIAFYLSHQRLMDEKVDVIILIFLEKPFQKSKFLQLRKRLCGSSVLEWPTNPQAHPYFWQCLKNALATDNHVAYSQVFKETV
The experiment can be described thus: NF-κB induction in HEK-Blue reporter cells transfected with human TLR7. Particulars: HEK-293 cells transfected with human TLR7, SEAP reporter, 18–24 h; read-out: EC50, half maximal activation of NF-κB (hTLR-7) (converted).

The target of another experiment is T2, human TLR8 (Homo sapiens, UniProt Q9NR97).
T2 construct: host or cells: HEK293 (HEK-Blue)
T2 sequence (Q9NR97 27-1041): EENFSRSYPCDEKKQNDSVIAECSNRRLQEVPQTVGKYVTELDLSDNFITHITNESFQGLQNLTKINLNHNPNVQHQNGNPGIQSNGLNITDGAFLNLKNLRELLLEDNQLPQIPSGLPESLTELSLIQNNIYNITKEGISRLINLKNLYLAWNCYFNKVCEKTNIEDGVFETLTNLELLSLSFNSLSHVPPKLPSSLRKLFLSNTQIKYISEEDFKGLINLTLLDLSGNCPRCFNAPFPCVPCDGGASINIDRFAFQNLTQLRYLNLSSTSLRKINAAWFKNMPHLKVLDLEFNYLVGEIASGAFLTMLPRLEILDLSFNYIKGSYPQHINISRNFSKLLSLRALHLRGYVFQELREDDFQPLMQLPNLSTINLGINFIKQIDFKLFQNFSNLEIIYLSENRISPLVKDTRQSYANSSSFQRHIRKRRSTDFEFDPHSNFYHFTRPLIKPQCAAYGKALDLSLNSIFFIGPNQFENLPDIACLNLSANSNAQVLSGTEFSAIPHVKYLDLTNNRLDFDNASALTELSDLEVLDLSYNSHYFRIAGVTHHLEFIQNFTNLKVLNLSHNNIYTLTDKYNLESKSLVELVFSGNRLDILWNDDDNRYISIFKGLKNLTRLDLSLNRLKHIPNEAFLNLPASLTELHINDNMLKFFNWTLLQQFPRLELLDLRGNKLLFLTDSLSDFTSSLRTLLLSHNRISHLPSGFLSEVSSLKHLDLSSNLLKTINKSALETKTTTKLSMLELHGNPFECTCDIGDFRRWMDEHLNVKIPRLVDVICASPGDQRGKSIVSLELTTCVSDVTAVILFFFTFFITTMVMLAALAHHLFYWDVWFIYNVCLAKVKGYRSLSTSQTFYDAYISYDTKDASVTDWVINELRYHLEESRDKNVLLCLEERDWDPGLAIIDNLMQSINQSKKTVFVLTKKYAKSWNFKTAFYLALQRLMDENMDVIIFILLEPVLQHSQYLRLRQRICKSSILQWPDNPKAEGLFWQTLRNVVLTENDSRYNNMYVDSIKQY
The experiment can be described thus: NF-κB induction in HEK-Blue reporter cells transfected with human TLR8. The settings on record: HEK-293 cells transfected with human TLR8, SEAP reporter, 18–24 h; read-out: EC50, half maximal activation of NF-κB (hTLR-8) (converted).

Regarding `CCCCc1nc2c(N)nc3ccccc3c2n1CC(C)(C)O` [Hybrid-2], the IL-1β production worked out at 15.63 pg/mL in the experiment on human newborn cord blood (0.01 µM); 15.63 pg/mL with human newborn cord blood (0.03 µM); 129.48 pg/mL with human newborn cord blood (0.1 µM); 437.70 pg/mL with human newborn cord blood (0.3 µM); 1887.36 pg/mL in the experiment with human newborn cord blood (10 µM); 15.63 pg/mL in experiment [1] (0.01 µM). In addition, the IL-1β production in experiment [1] (0.03 µM) was found to be 15.63 pg/mL; in experiment [1] (0.1 µM), 37.42 pg/mL; in experiment [1] (0.3 µM) it was 427.95 pg/mL; in experiment [1] (10 µM) it was 2972.60 pg/mL. Also, the TNF-α production is 193.14 pg/mL in the experiment with human newborn cord blood (0.01 µM); 189.84 pg/mL in the experiment on human newborn cord blood (0.03 µM); 464.55 pg/mL with human newborn cord blood (0.1 µM); 1998.77 pg/mL in the experiment with human newborn cord blood (0.3 µM); 3750.42 pg/mL in the experiment with human newborn cord blood (1 µM); 10395.78 pg/mL in the experiment on human newborn cord blood (10 µM). The TNF-α production was found to be 23.44 pg/mL in experiment [1] (0.01 µM); 102.83 pg/mL in experiment [1] (0.03 µM); 1427.29 pg/mL in experiment [1] (0.1 µM); 6362.58 pg/mL in experiment [1] (0.3 µM); 20983.61 pg/mL in experiment [1] (10 µM). Further, in the experiment on human newborn cord blood (neonatal blood, 0.1 μM and 1 μM, N = 6, p < 0.05), the “Efficacy in inducing TNF and IL-1β production compared to R848” value is “greater efficacy”. Besides, the “Efficacy in stimulating TNF and IL-1β production compared to R848” value in experiment [1] (adult blood, 0.1 μM and 1 μM respectively, N = 6, p < 0.05) is on record as “greater efficacy”. Also, in experiment [2], the pEC50 is 6.52.

For the molecule `CCCCc1nc2c(N)nc3ccccc3c2n1Cc1cccc(CN)c1` [Meta-amine], the EC50 at human TLR7 is 81.8 nM; at human TLR8 it was 92.9 nM.

For orientation: pEC50 means the negative decadic logarithm of the EC50, by convention in mol/L. The EC50 is the concentration giving half of the maximal effect.
